The values below come from publication PMC4640224, “Phosphorylation of a splice variant of collapsin response mediator protein 2 in the nucleus of tumour cells links cyclin dependent kinase-5 to oncogenesis” (BMC Cancer, 2015).

For the test, the system named is CDK5 substrate phosphorylation in primary cortical neurons. Nature of the test: Immunohistochemistry of CDK5 substrate phosphorylation in paraffin-embedded primary neurons. It counts as cell-based, rat. Particulars: 10 μM inhibitor, 3 h, formaldehyde fixed, Fig. 3b. The procedure: Ethical approval was obtained by review through the Tissue Access Committee of Tayside Tissue Bank (approval # TR338) and the studies follow the Guidelines of the Declaration of Helsinki for the use of human tissues for research. Sections of formalin-fixed, paraffin embedded tissue were cut at a thickness of 4 μm, collected onto Polysine-coated microscope slides (VWR International) and dried overnight at 37 °C. Sections were dewaxed in Histoclear, rinsed in alcohol and endogenous peroxidase was quenched with 0.5 % hydrogen peroxide (100 volumes) in methanol at room temperature for 35 min. After washing in water, antigen retrieval was performed by boiling sections in 10 mM citrate buffer, pH 6.0 for 15 min in a microwave. After cooling, sections were rinsed in PBS and blocked with 5 % normal serum in PBS containing 5 % (v/v) avidin (Vector Laboratories, Peterborough, UK) for 30 min at room temperature. Sections were washed in PBS and incubated with primary antibody in 5 % normal serum in PBS containing 5 % (v/v) biotin at 4 °C overnight. After washing in PBS, sections were then incubated with biotinylated secondary antibody (1:250) (Vector Laboratories) for 30 min at room temperature, followed by streptavidin complexed with biotinylated peroxidase (Vectastain ABC kit; Vector Laboratories) at room temperature for 30 min. The peroxidase complexes were visualized using 0.25 mg/ml diaminobenzidine tetrahydrochloride (DAB) (Sigma) in PBS containing 5 mM imidazole (pH 7.0) and 0.075 % hydrogen peroxide for 10 min at room temperature. Cell nuclei were counterstained with haematoxylin (Sigma), dehydrated through graded alcohols, cleared in HistoClear and mounted in DPX. Images were taken using a Spot Insight QE digital camera or slides were digitally scanned (x40) using an Aperio ScanScope XT.
[…]. […] Scale bar = 100 μm.

Turning to `CC[C@H](CO)Nc1nc(NCc2ccccc2)c2ncn(C(C)C)c2n1` [roscovitine], the “Intensity of staining and number of cells stained for phospho-Ser522 of CRMP2 (immunohistochemistry)” value was “reduced”; the “Tau phosphorylation at Ser235 (immunohistochemistry)” value is “not significantly affected”; the “Tau phosphorylation at Thr205 (immunohistochemistry)” value is on record as “not significantly affected”.
